This passage reports Ratio results from ChEMBL document CHEMBL2346663 (J Med Chem, 2013).

For this experiment, the species on record is Homo sapiens. The experiment in a line: Selectivity ratio of Ki for human SERT to IC50 for human recombinant MPO-mediated LDL oxidation. Put shortly: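 Ratio of two measured values. Recombinant human MPO (1 µg/mL) oxidised LDL (1000 µg/mL) in PBS pH 7.2 with 4 mM HCl and 100 µM H2O2 at 37 °C for 5 min. Oxidised LDL was detected by ELISA with Mab AG9 at 405 nm to give the IC50. hSERT was transiently expressed in HEK-293 MSR cells and assayed by [3H]5-HT uptake.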

Molecules are shown by their SMILES.

For the compound `ONCCCc1c[nH]c2ccc(F)cc12`, the Ratio worked out at 1.8.
